Source: ChEMBL document CHEMBL1132477, “Design and synthesis of novel alpha(1)(a) adrenoceptor-selective antagonists. 2. Approaches to eliminate opioid agonist metabolites via modification of linker and 4-methoxycarbonyl-4-phenylpiperidine moiety” (J Med Chem, 1999)

Protein sequences, listed by entry. Tags and fused reporters are not part of them.
UniProt P35372, whole entry, looked up: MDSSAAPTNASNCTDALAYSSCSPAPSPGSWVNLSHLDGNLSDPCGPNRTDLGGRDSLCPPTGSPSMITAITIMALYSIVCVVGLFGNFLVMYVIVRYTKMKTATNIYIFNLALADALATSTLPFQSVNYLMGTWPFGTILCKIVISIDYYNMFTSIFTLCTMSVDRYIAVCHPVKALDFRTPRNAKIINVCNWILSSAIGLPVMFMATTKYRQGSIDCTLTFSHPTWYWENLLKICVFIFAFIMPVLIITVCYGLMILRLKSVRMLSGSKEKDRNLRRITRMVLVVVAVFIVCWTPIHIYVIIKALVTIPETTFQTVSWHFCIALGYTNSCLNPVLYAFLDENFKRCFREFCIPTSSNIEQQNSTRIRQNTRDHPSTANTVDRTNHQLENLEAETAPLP

Target: Mu-type opioid receptor (Homo sapiens, UniProt P35372)
Assay: Inhibitory concentration against Opioid receptor mu 1 using [3H]DAMGO ligand

## CCOC(=O)C1(c2ccccc2)CCNCC1
  IC50: 1100 nM
